{"sequences": {"note": "Chains of the proteins cited; added tags and fusions are not shown. Residues count along the entry.", "UniProt P00748, 373-615 limits assumed": "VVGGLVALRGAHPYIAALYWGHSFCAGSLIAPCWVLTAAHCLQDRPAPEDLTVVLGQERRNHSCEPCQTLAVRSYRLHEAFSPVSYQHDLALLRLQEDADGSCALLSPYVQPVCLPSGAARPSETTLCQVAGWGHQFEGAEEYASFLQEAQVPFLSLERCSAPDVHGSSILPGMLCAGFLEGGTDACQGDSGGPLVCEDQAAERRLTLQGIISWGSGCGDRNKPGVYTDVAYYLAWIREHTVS"}, "source": "paper PMC9539897", "about": "(Angewandte Chemie (International Ed. in English), 2022)", "origin": "cited, not measured here", "target": "factor XIIa (FXIIa) (Homo sapiens, UniProt P00748)", "settings": "read-out: Ki FXIIa"}
{"substance": "Momordica cochinchinensis trypsin inhibitor‐II [cyclic MCoTI‐II]", "values": [{"measurement": "Ki", "result": "129 ± 9", "unit": "nM"}]}
